Assay results reported in patent US20190077795A1, “ARGININE […] INHIBITORS AND USES THEREOF” (Epizyme, Inc., priority 2014, published 2019).

System: mono-methyl arginine in RKO cells
Test: RKO Methylation Assay, In Cell Western (ICW)
Assay type: cell-based
Conditions: 72 hours
Source text: RKO adherent cells were purchased from ATCC (American Type Culture Collection), Manassas, Va., USA. DMEM/Glutamax medium, penicillin-streptomycin, heat inactivated fetal bovine serum, 0.05% trypsin and D-PBS were purchased from Life Technologies, Grand Island, N.Y., USA. Odyssey blocking buffer, 800CW goat anti-rabbit IgG (H+L) antibody, and Licor Odyssey infrared scanner were purchased from Licor Biosciences, Lincoln, Nebr., USA. Mono-methyl arginine antibody was purchased from Cell Signaling Technology, Danvers, Mass., USA. Methanol was purchased from VWR, Franklin, Mass., USA. 10% Tween 20 was purchased from KPL, Inc., Gaithersburg, Md., USA. DRAQ5 was purchased from Biostatus Limited, Leicestershire, UK. […]
First, the ratio for each well was determined by:
Each plate included fourteen control wells of DMSO only treatment (minimum activation) as well as fourteen control wells for maximum activation treated with 20 μM of a reference compound. The average of the ratio values for each control type was calculated and used to determine the percent activation for each test well in the plate. […] Percent activation was determined and EC30 curves were generated using triplicate wells per concentration of compound.

## CNCCN(C)Cc1c[nH]nc1-c1ccc(OC2CC(OCCC3CCOCC3)C2)cc1 (stereo not shown) [Compound 145]
  ICW EC30: 1039 nM
